Literature values in US20130273207A1, “Calcium Fortifying Composition for Strength, a Hydration Supplement, and Process for Preparing the Same” (priority 2010, published 2013).

Settings: single components; cited from earlier work

## calcium gluconate [reference compound]
  solubility: 35 g/L
